According to PubChem BioAssay AID1117356 (Cheminformatics & Chemogenomics Research Group (CCRG), …, 2015):
Activity calls are given as the source filed them. The rule behind the calls is not given here.

By UniProt entry, the sequences of proteins in these tests, tags left out.
UniProt P36888, whole entry, looked up: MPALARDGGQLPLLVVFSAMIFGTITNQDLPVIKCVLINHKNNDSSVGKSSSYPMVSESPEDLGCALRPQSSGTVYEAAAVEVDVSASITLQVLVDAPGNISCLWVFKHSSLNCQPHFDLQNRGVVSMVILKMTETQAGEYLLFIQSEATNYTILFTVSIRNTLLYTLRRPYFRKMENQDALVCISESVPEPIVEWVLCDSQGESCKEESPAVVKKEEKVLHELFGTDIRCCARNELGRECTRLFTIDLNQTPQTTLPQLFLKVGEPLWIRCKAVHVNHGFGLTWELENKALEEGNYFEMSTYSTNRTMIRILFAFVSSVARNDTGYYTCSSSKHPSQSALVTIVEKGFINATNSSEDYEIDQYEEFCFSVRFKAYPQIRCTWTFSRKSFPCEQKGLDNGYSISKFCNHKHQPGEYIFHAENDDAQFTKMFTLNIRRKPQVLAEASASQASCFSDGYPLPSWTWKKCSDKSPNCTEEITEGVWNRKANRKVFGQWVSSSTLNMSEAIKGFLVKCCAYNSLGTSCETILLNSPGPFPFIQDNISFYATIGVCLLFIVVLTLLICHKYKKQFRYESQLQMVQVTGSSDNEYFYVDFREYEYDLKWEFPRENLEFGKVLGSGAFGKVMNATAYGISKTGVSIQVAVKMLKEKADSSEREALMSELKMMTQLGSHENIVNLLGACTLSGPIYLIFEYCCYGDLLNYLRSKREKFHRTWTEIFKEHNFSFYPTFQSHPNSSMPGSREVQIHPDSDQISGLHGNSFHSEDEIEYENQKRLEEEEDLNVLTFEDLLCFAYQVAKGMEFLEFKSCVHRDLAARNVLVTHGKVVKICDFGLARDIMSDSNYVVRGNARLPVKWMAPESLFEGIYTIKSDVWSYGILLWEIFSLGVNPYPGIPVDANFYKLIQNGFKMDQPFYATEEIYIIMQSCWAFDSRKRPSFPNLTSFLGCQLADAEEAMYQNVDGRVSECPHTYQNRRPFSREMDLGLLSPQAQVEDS

Target: Receptor-type tyrosine-protein kinase FLT3 (Homo sapiens) (UniProt P36888)
Test: inhibitors of Homo sapiens fms-like tyrosine kinase 3, primary HTS, cell-free, LANCE Ultra TR-FRET, NPC library from NCATS (AID 1117356)
Conditions: recombinant FLT3, LANCE Ultra TR-FRET kinase assay, stronger effect = higher value

Question: Which results are given for `CN(CCCl)CCCl`?
Answer: inhibition (at 20 µM): inactive: -20.2%; inhibition (inhibition, at 0.2 µM): -38.5%; inhibition (inhibition, at 2 µM): -9.42%
